B1: 2A1-LC-Cys110ins: 2A1 antibody with cysteine inserted at light chain position 110 (SEQ ID NO: 16) (antibody)
heavy: DVQLQESGPSLVKPSQSLSLTCTVTGYSITSDFAWNWIRQFPGNKLEWMGYISYSGNTRYNPSLKSRISITRDTSKNQFFLQLNSVTIEDTATYYCVTAGRGFPYWGQGTLVTVSAASTKGPSVFPLAPSSKSTSGGTAALGCLVKDYFPEPVTVSWNSGALTSGVHTFPAVLQSSGLYSLSSVVTVPSSSLGTQTYICNVNHKPSNTKVDKRV[human IgG1 Fc not spelt out]
light: DILMTQSPSSMSVSLGDTVSITCHSSQDINSNIGWLQQRPGKSFKGLIYHGTNLDDEVPSRFSGSGSGADYSLTISSLESEDFADYYCVQYAQFPWTFGGGTKLEIKRTCVAAPSVFIFPPSDEQLKSGTASVVCLLNNFYPREAKVQWKVDNALQSGNSQESVTEQDSKDSTYSLSSTLTLSKADYEKHKVYACEVTHQGLSSPVTKSFNRGE
B2: 2A1-LC-Cys111ins: 2A1 antibody with cysteine inserted at light chain position 111 (SEQ ID NO: 18) (antibody)
heavy: B1 heavy
light: DILMTQSPSSMSVSLGDTVSITCHSSQDINSNIGWLQQRPGKSFKGLIYHGTNLDDEVPSRFSGSGSGADYSLTISSLESEDFADYYCVQYAQFPWTFGGGTKLEIKRTVCAAPSVFIFPPSDEQLKSGTASVVCLLNNFYPREAKVQWKVDNALQSGNSQESVTEQDSKDSTYSLSSTLTLSKADYEKHKVYACEVTHQGLSSPVTKSFNRGEC
B3: 2A1-LC-Cys142ins: 2A1 antibody with cysteine inserted at light chain position 142 (SEQ ID NO: 20) (antibody)
heavy: B1 heavy
light: DILMTQSPSSMSVSLGDTVSITCHSSQDINSNIGWLQQRPGKSFKGLIYHGTNLDDEVPSRFSGSGSGADYSLTISSLESEDFADYYCVQYAQFPWTFGGGTKLEIKRTVAAPSVFIFPPSDEQLKSGTASVVCLLNNFYPCREAKVQWKVDNALQSGNSQESVTEQDSKDSTYSLSSTLTLSKADYEKHKVYACEVTHQGLSSPVTKSFNRGEC

Here are results for 3 molecules from US12678474B2, “Screening of fixed-point coupling sites of cysteine-modified antibody-toxin conjugate (TDC)” (SICHUAN BAILI PHARMACEUTICAL CO. LTD., priority 2017, dated 2026).

The first assay has as its system EGFRwt-overexpressing human skin squamous cell carcinoma cell line A431. The assay is described as follows: MTS cytotoxicity (cell viability) assay, A431. It counts as cell-based. Conditions: antibodies; 72 hours. The protocol:
(§1) TDC cytotoxic activity was determined via the following experimental procedure: TDC was added to EGFR-overexpressing or […]-expressing human tumor cell culture medium, and cell viability was determined after 72 hours of cell culture. Cell-based in vitro experiments were used to determine cell viability, cytotoxicity and programmed cell death induced by TDC constituted by the present invention.
(§2) In vitro efficacy of antibody-toxin conjugates was determined via a cell proliferation assay. A CellTiter ^96® AqueousOne Solution Cell was Proliferation Assay purchased commercially from Promega Corp. (Madison, WI). CellTiter ^96® Aqueous One Solution Cell Proliferation Assay (a) is a colorimetric method used to detect the number of living cells in cell proliferation and cytotoxicity experiments. The above reagent contains the novel tetrazole compound [3-(4,5-dimethylthiazol-2-yl)-5-(3-carboxymethoxyphenyl)-2-(4-sulfophenyl)-2H-tetrazolium, inner salt; MTS) as well as an electronic coupling agent (phenazine ethosulfate; PES). […] This convenient “single solution” model is an improvement on the first generation of the CellTiter ^96® Aqueous Assay, in which the electronic coupling agent PMS was supplied separately from the MTS solution. MTS (Owen's reagent) is reduced by cellular organisms into a colored formazan product, which can be directly dissolved in culture medium (FIG. 1). This conversion is likely facilitated by NADPH NADH produced by dehydrogenase present in metabolically active cells. For the assay, a small amount of CellTiter ^96® Aqueous One Solution Reagent is added directly to the medium present in the wells of the culture plate, after which incubation is performed for 1 to 4 hours, followed by reading of the absorbance value at 490 nm using a microplate reader.
(§3) The amount of formazan product detected at 490 nm is proportional to the number of viable cells in culture. Because the formazan product of MTS is soluble in tissue culture medium, CellTiter ^96® Aqueous One Solution Assay requires fewer steps than the MTT or INT methods. A431 (EGFR-overexpressing cells) and U87-[…] […]
Consider B1, for which the concentration for half-maximal inhibition (IC50) (in general, the concentration that gives 50% inhibition) was more than 10 µM.

B2: the IC50 was more than 10 µM.

For the molecule B3, the half-maximal inhibitory concentration (IC50) was more than 10 µM.

A further assay concerns EFGRvIII-overexpressing human glioma cell line U87-EGFRvIII. The assay is described as follows: MTS cytotoxicity (cell viability) assay, U87-EGFRvIII. Type of assay: cell-based. Conditions: antibodies; 72 hours; read-out: IC50, U87MG-EGFRvIII (MTS). On the procedure: as §1, §2, §3
For the molecule B1, the 50% inhibitory concentration (IC50) was more than 10 µM.

For the molecule B2, the 50% inhibitory concentration (IC50) is more than 10 µM.

For the molecule B3, the IC50 is more than 10 µM.

The next assay has as its target T1, Recombinant EGFRVIII-His*6 antigen (Homo sapiens, DELINS[…]G).
T1 construct: His*6
The assay is described as follows: ELISA relative affinity for EGFRvIII. Type of assay: binding.
Conditions: not given
From the text:
Insertion Mutation Modification and Parent Antibody 2A1 for EGFRvIII • ELISA was used to compare the relative affinities of 2A1-LC-Cys110ins-mc-vc-PAB-MMAE TDC, 2A1-LC-Cys111ins-mc-vc-PAB-MMAE TDC, 2A1-LC-Cys142ins-mc-vc-PAB-MMAE TDC, 2A1-HC-Cys254ins-mc-vc-PAB-MMAE TDC, 2A1-HC-Cys255ins-mc-vc-PAB-MMAE TDC, 2A1-HC-Cys258ins-mc-vc-PAB-MMAE TDC, 2A1-HC-Cys259ins-mc-vc-PAB-MMAE TDC, 2A1-HC-Cys354ins-mc-vc-PAB-MMAE TDC, 2A1-HC-Cys355ins-mc-vc-PAB-MMAE TDC, 2A1-HC-Cys357ins-mc-vc-PAB-MMAE TDC, 2A1-HC-Cys378ins-mc-vc-PAB-MMAE TDC, 2A1-HC-Cys379ins-mc-vc-PAB-MMAE TDC, 2A1-HC-Cys386ins-mc-vc-PAB-MMAE TDC, 2A1-HC-Cys387ins-mc-vc-PAB-MMAE TDC, 2A1-HC-Cys410ins-mc-vc-PAB-MMAE TDC, and 2A1 for EGFRvIII. The specific process used was as follows:
Recombinant […]-His*6 antigen was used to coat plates; fish skin gelatin was used as a seal; dilution of each insertion mutant antibody was performed separately, up to a maximum concentration 10 μg/ml and a 4-fold gradient dilution was performed for a total of 11 concentrations; HRP-labeled secondary antibodies were used for incubation; TMB was used for development and absorption detection was performed at 450 nm.
With B1, the “Affinity for EGFRvIII relative to 2A1 (in words)” value is given as “maintained 2A1 affinity”.

For B2, the “Affinity for EGFRvIII relative to 2A1 (in words)” value is listed as “maintained 2A1 affinity”.

For B3, the “Affinity for EGFRvIII relative to 2A1 (in words)” value is reported as “maintained 2A1 affinity”.

The assay is the same for the next values; noted with them: EGFRvIII-coated plates, A450, read-out: EC50 (nM), mutant antibody affinity.
Take B1: the half-maximal effective concentration (EC50) – broadly, the midpoint of the concentration-response curve – worked out at 0.0404 nM.

B2: the EC50 came out at 0.0467 nM.

Turning to B3, the EC50 turned out to be 0.0498 nM.
